Measured values published in US8685916B2, “Opioid prodrugs with heterocyclic linkers” (Signature Therapeutics, Inc., priority 2011, dated 2014).

Assays:
[1] = Oral administration of Compound KC-55 co-dosed with Compound 109 to rats; details: male, Sprague Dawley, rat, plasma, 36 umol/kg
[2] = Pharmacokinetics following PO administration of Compound KC-55 to rats; details: male, Sprague Dawley, rat, plasma, 10 mg/kg

## COc1ccc2c3c1O[C@H]1C(=O)CC[C@@]4(O)[C@@H](C2)N(C)CC[C@]314 [Oxycodone, oxycodone]
[1]
  Tmax: 37.5 min
[2]
  Tmax: 37.5 ± 25.8 min
